Laboratory results reported in paper PMC9069406 (Acta Pharmaceutica Sinica. B, 2021).

How the values were obtained:
4T1 cells = experiment: Transwell migration assay; type: cell-based, murine; details: Mus musculus, 4T1, 24 h, read-out: inhibition of migration
MDA-MB-231 cells = experiment: Transwell migration assay; type: cell-based; details: Homo sapiens, MDA-MB-231, 24 h, read-out: inhibition of migration

## CCc1cnn2c(NCc3ccc[n+]([O-])c3)cc(N3CCCC[C@H]3CCO)nc12 [Complex 20, dinaciclib]
4T1 cells
  inhibition at 0.3 µM: 58%
MDA-MB-231 cells
  inhibition at 0.3 µM: 64%
